Earlier results, collected in paper PMC8765435, “In Vitro Antimalarial Activity of Inhibitors of the Human GTPase Rac1” (Antimicrobial Agents and Chemotherapy, 2022).

Molecular target: Rac1 (Homo sapiens, UniProt P63000)
Conditions: Rac1 activity in human smooth muscle cells; cited from earlier work

SMILES: O=C(Nc1ccc(S(=O)(=O)N2CCCCC2)cc1)c1cc(-c2ccccc2O)n[nH]1
- IC50: 8.7 µM
